# Experimental data reported in US12221649B2 (priority 2018, dated 2025).
# By UniProt entry, the sequences of proteins in these tests, tags left out.
# UniProt Q04609, whole entry: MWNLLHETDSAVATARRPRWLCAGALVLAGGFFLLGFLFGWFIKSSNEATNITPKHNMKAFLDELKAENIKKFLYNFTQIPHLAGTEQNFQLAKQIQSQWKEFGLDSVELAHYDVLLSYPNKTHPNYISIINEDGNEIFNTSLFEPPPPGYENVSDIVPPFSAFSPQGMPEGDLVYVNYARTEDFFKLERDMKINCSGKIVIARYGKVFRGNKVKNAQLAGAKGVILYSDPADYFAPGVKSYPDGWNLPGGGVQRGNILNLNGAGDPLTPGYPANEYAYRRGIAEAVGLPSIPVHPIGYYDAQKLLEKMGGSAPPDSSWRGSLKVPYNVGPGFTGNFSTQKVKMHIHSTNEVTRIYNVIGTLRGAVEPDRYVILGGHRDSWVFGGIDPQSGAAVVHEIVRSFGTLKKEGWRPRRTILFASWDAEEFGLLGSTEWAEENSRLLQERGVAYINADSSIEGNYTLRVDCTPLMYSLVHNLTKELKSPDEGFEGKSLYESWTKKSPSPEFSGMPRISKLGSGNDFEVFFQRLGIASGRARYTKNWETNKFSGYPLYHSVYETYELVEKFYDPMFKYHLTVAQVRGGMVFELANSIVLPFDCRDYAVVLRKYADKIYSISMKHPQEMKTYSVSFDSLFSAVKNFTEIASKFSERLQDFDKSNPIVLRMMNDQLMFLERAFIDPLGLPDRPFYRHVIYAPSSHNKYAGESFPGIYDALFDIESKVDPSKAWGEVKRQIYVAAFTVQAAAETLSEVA
# Target: PSMA (Homo sapiens, UniProt Q04609)
# Assay: Enzyme assay of probes and PSMA (fluorescence increase)
# Type: biochemical
# Conditions: 10 μM inhibitor, 10 μM 4MU-tSoul-GE, 22 ng PSMA
# Procedure: An enzyme assay was performed using the synthesized 4MU-tSoul-AE and PSMA.
# Here, 10 μM 4MU-tSoul-AE in TBS buffer was incubated at 37° C. with 22 ng PSMA in the presence or absence of 10 μM inhibitor (2-PMPA) containing 0.1% DMSO as a co-solvent. Ex/Em=355/460 nm. n=3.
# An enzyme assay was performed using the synthesized 4MU-tSoul-GE and PSMA. […] It can be said that this indicates strength of the present molecular design in which not only C-terminal amino acid to be cleaved by carboxypeptidase but also a structure of adjacent amino acid can be flexibly selected (FIG. 9).
# Here, FIG. 9(a) illustrates a reaction scheme of 4MU-tSoul-GE and PSMA. In FIG. 9(b), 10 μM 4MU-tSoul-GE in TBS buffer was incubated at 37° C. with 22 ng PSMA in the presence or absence of 10 μM inhibitor (2-PMPA) containing 0.1% DMSO as a co-solvent. Ex/Em=355/460 nm. n=3.
structure (smiles),measurement,value
"O=C(O)CCC(CP(=O)(O)O)C(=O)O (stereo not shown) [Compound 2-PMPA, reference compound]",effect of inhibitor on the increase in fluorescence of 4MU-tSoul-GE with PSMA,suppressed
